The source of these data is patent publication US9394282B2, “Pyrazole carboxamides as Janus kinase inhibitors” (Merck Sharp & Dohme Corp., priority 2011, dated 2016).

Protein sequences, listed by entry. Tags and fused reporters are not part of them. Residues count along the entry.
UniProt O60674, 849-1124: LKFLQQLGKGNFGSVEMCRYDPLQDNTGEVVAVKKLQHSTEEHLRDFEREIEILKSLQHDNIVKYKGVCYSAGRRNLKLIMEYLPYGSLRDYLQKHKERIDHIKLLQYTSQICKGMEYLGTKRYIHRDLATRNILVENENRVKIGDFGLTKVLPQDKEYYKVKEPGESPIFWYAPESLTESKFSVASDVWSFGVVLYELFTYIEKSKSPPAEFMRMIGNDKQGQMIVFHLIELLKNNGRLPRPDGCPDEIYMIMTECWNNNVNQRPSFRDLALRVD
UniProt P23458, 875-1153: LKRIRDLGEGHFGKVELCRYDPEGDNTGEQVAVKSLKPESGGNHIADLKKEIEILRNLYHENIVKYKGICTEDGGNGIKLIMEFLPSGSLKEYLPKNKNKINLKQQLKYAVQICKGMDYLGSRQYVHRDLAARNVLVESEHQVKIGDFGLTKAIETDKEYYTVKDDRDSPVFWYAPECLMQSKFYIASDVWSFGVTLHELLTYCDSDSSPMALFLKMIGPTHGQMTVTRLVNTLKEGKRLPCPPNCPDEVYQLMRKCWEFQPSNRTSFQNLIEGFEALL

Usually IC50 stands for the concentration needed to halve the response being measured.

The target of experiment [1] is JAK2 (Homo sapiens (Human), UniProt O60674). The experiment in a line: Jak biochemical HTRF assay, JAK2. The following applies: recombinant purified GST-tagged catalytic domain; HTRF format; [ATP] 8.5 μM. From the text: (§1) Jak Biochemical HTRF Assay Protocol
(§2) Subsequent reagent additions employed an Agilent Bravo.
(In general: Time-resolved FRET reads energy transfer from a long-lived donor to a nearby acceptor.)

The target in experiment [2] is JAK1 (Homo sapiens (Human), UniProt P23458). The experiment in a line: Jak biochemical HTRF assay, JAK1. To be noted: recombinant purified GST-tagged catalytic domain; HTRF format; [ATP] 31.8 μM.
Excerpt: as §1, §2

As to `N#C[C@@H]1CCOC[C@H]1n1cc(C(N)=O)c(Nc2ccc([C@H](O)C(F)(F)F)cc2)n1` (single isomer, unassigned) [Example 9-7, 1-[(3S,4R or 3R,4S)-4-cyanotetrahydro-2H-pyran-3-yl]-3-({4-[(1S or 1R)-2,2,2-trifluoro-1-hydroxyethyl]phenyl}amino)-1H-pyrazole-4-carboxamide], the IC50 in experiment [1] turned out to be 27000 pM; in experiment [2], 4000 pM.

Regarding `N#C[C@H]1CCOC[C@@H]1n1cc(C(N)=O)c(Nc2ccc([C@@H](O)C(F)(F)F)cc2)n1` (single isomer, unassigned) [Example 9-8, 1-[(3R,4S or 3S,4R)-4-cyanotetrahydro-2H-pyran-3-yl]-3-({4-[(1R or 1S)-2,2,2-trifluoro-1-hydroxyethyl]phenyl}amino)-1H-pyrazole-4-carboxamide], the IC50 in experiment [1] came out at 600 pM; in experiment [2], 90 pM.

With `N#C[C@H]1CCOC[C@@H]1n1cc(C(N)=O)c(Nc2ccc([C@H](O)C(F)(F)F)cc2)n1` (single isomer, unassigned) [Example 9-9, 1-[(3R,4S or 3S,4R)-4-cyanotetrahydro-2H-pyran-3-yl]-3-({4-[(1S or 1R)-2,2,2-trifluoro-1-hydroxyethyl]phenyl}amino)-1H-pyrazole-4-carboxamide], the results for the IC50 in experiment [1] and in experiment [2] were 700 pM and 90 pM, respectively.

In the case of `C[C@](O)(c1ccc(Nc2nn([C@H]3COCC[C@@H]3C#N)cc2C(N)=O)cc1)C(F)F` (single isomer, unassigned) [Example 9-16, 1-[(3R,4S or 3S,4R)-4-cyanotetrahydro-2H-pyran-3-yl]-3-({4-[(1S or 1R)-2,2-difluoro-1-hydroxy-1-methylethyl]phenyl}amino)-1H-pyrazole-4-carboxamide], the IC50 in experiment [1] was 200 pM; in experiment [2], 30 pM.

As for `C[C@@](O)(c1ccc(Nc2nn([C@H]3COCC[C@@H]3C#N)cc2C(N)=O)cc1)C(F)F` (single isomer, unassigned) [Example 9-17, 1-[(3R,4S or 3S,4R)-4-cyanotetrahydro-2H-pyran-3-yl]-3-({4-[(1R or 1S)-2,2-difluoro-1-hydroxy-1-methylethyl]phenyl}amino)-1H-pyrazole-4-carboxamide], the IC50 stood at 200 pM in experiment [1] and 50 pM in experiment [2].

On to `C[C@](O)(c1ccc(Nc2nn([C@@H]3COCC[C@H]3C#N)cc2C(N)=O)cc1)C(F)F` (single isomer, unassigned) [Example 9-18, 1-[(3S,4R or 3R,4S)-4-cyanotetrahydro-2H-pyran-3-yl]-3-({4-[(1S or 1R)-2,2-difluoro-1-hydroxy-1-methylethyl]phenyl}amino)-1H-pyrazole-4-carboxamide], for which the IC50 amounted to 12000 pM in experiment [1] and 3000 pM in experiment [2].

As to `C[C@@](O)(c1ccc(Nc2nn([C@@H]3COCC[C@H]3C#N)cc2C(N)=O)cc1)C(F)F` (single isomer, unassigned) [Example 9-19, 1-[(3S,4R or 3R,4S)-4-cyanotetrahydro-2H-pyran-3-yl]-3-({4-[(1R or 1S)-2,2-difluoro-1-hydroxy-1-methylethyl]phenyl[amino)-1H-pyrazole-4-carboxamide], the IC50 in experiment [1] stood at 9000 pM; in experiment [2], 2000 pM.
